## Measured affinities in a library of Ab-14 heavy chain variants

Reference: Li et al. 2023, doi:10.1038/s41467-023-39022-2. File: FLAb, binding data.

Target: peptide PDVDLGDISGINAS, taken from heptad repeat 2 (HR2) of SARS-CoV-2 spike.

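The starting antibody came from a phage panning campaign against this peptide. The variants were designed computationally from a first round of random CDR variants and then made and measured. Group labels follow the data file (En: ensemble of fine-tuned language models; HC: hill climbing; Gen: genetic algorithm; Gibbs: Gibbs sampling; a sequence that several methods proposed may carry one label only). The assay is AlphaSeq: two haploid yeast populations carry antibody and antigen on their surface. Binding brings cells together so that they mate, and sequencing counts the barcode pairs among the diploids. Each replicate has its own calibration line, from reference interactions of the BCL2 family. The assay was run in six technical replicates.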

The variants keep the light chain, the linker and the frameworks of Ab-14 (scFv order VH, a (GGGGS)3 linker, VL).
VH: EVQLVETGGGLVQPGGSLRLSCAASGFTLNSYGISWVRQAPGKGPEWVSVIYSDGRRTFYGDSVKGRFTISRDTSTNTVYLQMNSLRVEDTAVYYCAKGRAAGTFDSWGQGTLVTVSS
VL: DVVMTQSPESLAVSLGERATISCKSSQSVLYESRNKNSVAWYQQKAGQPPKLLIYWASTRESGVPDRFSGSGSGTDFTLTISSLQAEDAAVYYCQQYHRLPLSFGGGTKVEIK

The parent's heavy chain CDRs are GFTLNSYGIS, VIYSDGRRTFYGDSVK, GRAAGTFDS; each variant's own CDRs replace them letter for letter. This list holds designs with more than six substitutions. Kd is apparent (estimated from mating counts) and averaged on the log scale over replicates with a signal. Smaller is tighter. "nd" marks a missing value. The strain was present, yet no cells mated with the target were sequenced in any replicate, which points to weak or no binding.

For GFDLNEYGIS / VIYADGRRTFYADSVK / GEVAGTFVD [En_HC], the assay gave 870 pM (6 of 6 replicates). With GFNLDEYGIS / VIYADGRRTFYADSVK / GEVAGTFDS [En_HC] the result was 470 pM (6 of 6 replicates). The variant GFDLEKYGIS / VIYADGKRVAYTDAVK / GGTGGMLMS [En_Gibbs] showed 580 nM (2 of 6 replicates). For GFDLNEYGIS / VIYADGQRTAYADKVK / GENAGTFDI [En_HC], the assay gave 480 pM (6 of 6 replicates). For GFDLNEYGIS / VIYADGMRTAYADNVK / GENAGTFDL [En_Gen], the assay gave 670 pM (6 of 6 replicates).

The variant GNDLQEYGIS / VIYADGQRVNAVSQVK / GEQAGTFNL [En_Gibbs] showed nd (0 of 6 replicates). The variant GFSIDEYGIS / VIYADGARASYADKVK / GQEVGDLIT [En_Gibbs] showed 95 nM (1 of 6 replicates). For GFDIEEYGIS / VIYADGMRTVYSDSFK / SGRTFNMDL [En_Gibbs], the assay gave nd (0 of 6 replicates). With GFDLNEYGIS / VIYADGIRTFYADSVK / GNAAGTFDI [En_HC] the result was 670 pM (6 of 6 replicates). With GFDLDEYGIS / VIYADGMRTFYKDSVK / GQNAGTFDQ [En_HC] the result was 180 pM (6 of 6 replicates).

The variant GFDLNEYGIS / VIYADGLRTAYADSVK / GNTAGTFDV [En_Gen] showed 1.1 nM (6 of 6 replicates). The variant GFDLNEYGIS / VIYADGSRTAYSDSVK / GQTAGTFDV [En_HC] showed 290 pM (6 of 6 replicates). The variant GFNIDEYGIS / VIYADGDRMSYDNAVK / GQISGHFDM [En_Gibbs] showed nd (0 of 6 replicates). The variant GFDLDEYGVS / VIYADGRRSKYADSVK / GTTGGTINA [En_Gibbs] gave 510 nM (2 of 6 replicates). The variant GFDLNEYGIS / VIYADGKRSYATDSVK / GGYNIGASV [En_Gibbs] gave 140 nM (1 of 6 replicates).

The variant GFSLDEYGIS / VIYADGLRSFYQDQVK / GQLALSLDT [En_Gibbs] gave nd (0 of 6 replicates). The variant GFDLDEYGIS / VIYADGMRTFYADSVK / GENAGTFDT [En_Gen] showed 1.7 nM (6 of 6 replicates). The variant GFDLNEYGIS / VIYADGMRTAYADDVK / GNTAGTFDQ [En_Gen] showed nd (0 of 6 replicates). For GFDLEEYGIS / VIYADGRRTFYTDSVK / GENAGTFDV [En_HC], the assay gave 580 pM (6 of 6 replicates). The variant GFDLNEYGIS / VIYADGMRTAYADNVK / GQVAGTFDL [En_Gen] gave 220 pM (6 of 6 replicates).

The variant GFDIDEYGVS / VIYADGFREAYAESVK / GLIQTGITV [En_Gibbs] showed 18 µM (1 of 6 replicates). The variant GFDLESYGIS / VIYADGSRTAYADSVK / GNVAGTFDK [En_HC] gave 300 pM (6 of 6 replicates). The variant GDDLEEYGIS / VIYADGMRTYYEDSVK / GNVNGTFFI [En_Gibbs] gave nd (0 of 6 replicates). For GFDLNEYGIS / VIYADGMRTAYADSVK / GANAGTFDT [En_Gen], the assay gave 590 pM (6 of 6 replicates). The variant GFDLNEYGIS / VIYADGVRTFYADSVK / GNTAGTFLS [En_HC] gave 370 pM (6 of 6 replicates).

The variant GFDLNEYGIS / VIYADGMRTAYANDVK / GEVAGTFDL [En_Gen] showed 130 pM (5 of 6 replicates). The variant GFDLNEYGIS / VIYADGMRTVYADSVK / GNNAGTFDL [En_Gen] gave 100 pM (6 of 6 replicates). With GFDLNEYGIS / VIYADGVRTFYADSVK / GNVAGTFDS [En_HC] the result was nd (0 of 6 replicates). For GFDLDEYGIS / VIYADGMRTAYSDSVK / GSNAGTFDM [En_Gen], the assay gave 640 pM (6 of 6 replicates). The variant GFDIEDFGIS / VIYADGKRSAYSNSVK / GLMAGTMGY [En_Gibbs] showed 250 nM (5 of 6 replicates).

With GFDLNEYGVS / VIYADGFRTSYTDSVK / GNIFDLSMA [En_Gibbs] the result was nd (0 of 6 replicates). The variant GFDLDEYGIS / VIYADGRRTFYADSVK / GETAGTFTS [En_HC] showed 280 pM (6 of 6 replicates). With GNDLQEYGIS / VIYADGMRNQYAQSVK / GMEAGVFVY [En_Gibbs] the result was nd (0 of 6 replicates). For GFDLNEYGIS / VIYADGRRTFYADSVK / GESAGTFDV [En_HC], the assay gave 390 pM (6 of 6 replicates). For GFDLNEYGIS / VIYADGMRTAYTDSVK / GQNAGTFDI [En_Gen], the assay gave 45 pM (6 of 6 replicates).

From the list, the first 5 with no signal in any replicate:

GNDLQEYGIS / VIYADGQRVNAVSQVK / GEQAGTFNL [En_Gibbs]: nd (0 of 6 replicates).
GFDIEEYGIS / VIYADGMRTVYSDSFK / SGRTFNMDL [En_Gibbs]: nd (0 of 6 replicates).
GFNIDEYGIS / VIYADGDRMSYDNAVK / GQISGHFDM [En_Gibbs]: nd (0 of 6 replicates).
GFSLDEYGIS / VIYADGLRSFYQDQVK / GQLALSLDT [En_Gibbs]: nd (0 of 6 replicates).
GFDLNEYGIS / VIYADGMRTAYADDVK / GNTAGTFDQ [En_Gen]: nd (0 of 6 replicates).

Nonspecific signal, from three strains lacking the peptide, appeared in 1% of pairings of all heavy chain designs, centred on 120 nM (5% of these signals below 7.0 nM); values are not corrected for it. The authors averaged sequences with at least three values out of six and counted those with two or fewer as poor binders. The range of this assay differs from that of the first round, and the authors advise against merging the two.